Reference: patent publication US20120021972A1 (CADILA HEALTHCARE, published 2012)

Target: human GLP-1 receptor (human) (UniProt P43220)
Test: cell-based or functional assay

EC50, cAMP, H GLP-1 R assay: 0.56 nM | cAMP release, % activity, 1 nM: 88% | cAMP release, % activity, 10 nM: 95% | cAMP release, % activity, 100 nM: 99% | cAMP release, % activity, 1 µM: 99% | cAMP release, % activity, 10 µM: 99%
Substance: Exendin-4 (from UniProt P26349) (peptide)
